Assay results reported in article PMC10923831 (2024).

Molecular target: T1, RAD51 (UniProt Q06609 1-339)
T1 chain: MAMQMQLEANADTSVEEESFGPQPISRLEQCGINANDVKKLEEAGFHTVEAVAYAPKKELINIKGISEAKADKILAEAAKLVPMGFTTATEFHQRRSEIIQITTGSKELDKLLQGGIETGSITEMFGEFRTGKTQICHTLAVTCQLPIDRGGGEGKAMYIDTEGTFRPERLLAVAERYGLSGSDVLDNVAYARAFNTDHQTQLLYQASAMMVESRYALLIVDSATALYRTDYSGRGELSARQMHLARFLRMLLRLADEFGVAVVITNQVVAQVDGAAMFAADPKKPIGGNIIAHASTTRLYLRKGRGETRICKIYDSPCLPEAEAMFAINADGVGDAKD
Test: MST

B1: GRB2-SH2 domain (isolated, for MST) (domain or fragment)
chain: WFFGKIPRAKAEEMLSKQRHDGAFLIRESESAPGDFSLSVKFGNDVQHFKVLRDGAGKYFLWVVKFNSLNELVDYHRSTSVSRNQQIFLRDIE
**Q.** How did the Kd turn out when B1 was run?
**A.** Its Kd is 0.131 µM.
